These results are taken from US20090094703A1, “Novel medulloblastoma-forming cell line” (The Hospital For Sick Children, priority 2007, published 2009).

For this test, the system named is Hh signaling. The note with it: 5 μM, 7 days, serum free Ptc1+/- medulloblastoma cell lines. The protocol:
C57/B6 Trp53^+/− mice (Jackson Laboratory, Maine, USA) and Ptc1^+/− mice were mated to generate a Ptc1^+/−p53^+/− breeding colony. Mice with symptoms of medulloblastoma, domed appearance of the head, unsteadiness of gait, were sacrificed by cervical dislocation. Brains were removed and tumours microdissected, dissociated by gentle pipetting in PBS and filtered through a […] nylon filter. Cells were grown in serum free conditions with 20 ng/ml epidermal growth factor (EGF) and 20 ng/ml basic fibroblast growth factor (FGF) as previously described (Diamandis, P. et al. Nat Chem Biol 3, 268-73 (2007); Reynolds, B. A. & Weiss, S. Science 255, 1707-10 (1992)). […] 50 μl fresh media and inhibitor was added every second day. For differentiation analysis, cells were grown in DMEM/F12 media supplemented with 10% foetal bovine serum for 7 days. MTT assays were performed as previously described (Diamandis, P. et al. Nat Chem Biol 3, 268-73 (2007))
Hh and Notch target genes were analyzed by RT-PCR and/or Western blot by standard procedures using the primers in the following Table 2.

With `CC1=C2C[C@H]3[C@@H](CC=C4C[C@@H](O)CC[C@@]43C)[C@@H]2CC[C@]12O[C@@H]1C[C@H](C)CN[C@H]1[C@H]2C` [Cyclopamine, cyclopamine], the “ratio of Gli3 in its repressor (Rep) form” value is given as “increased”.
